Results published in patent publication US9815835B2, “Substituted polycyclic carbamolypyridone derivative” (priority 2009, dated 2017).

Experiments:
[1] = target: cap-dependent endonuclease (RNP fraction containing PB1•PB2•PA complex) (Influenza A virus, UniProt P15659); assay: biochemical; design: species or system A/WSN/33 virus
influenza virus = assay: microbe, parasite or virus in culture; assay type: cell-based, influenza virus (MDBK or MDCK cells); conditions: unidentified influenza virus, 72 h, read-out: CPE EC50, effective concentration to achieve 50% CPE inhibition, 3 days incubation, WST-8
[2] = RNP from A/WSN/33 virus, capped Cy3/BHQ2 30mer RNA substrate, 60 minutes at room temperature, read-out: CEN IC50

SMILES	IC50 ([1]; CEN IC50)	EC50 (influenza virus)	IC50 [1, 2]
CN1CN(C2c3ccccc3CSc3ccccc32)n2ccc(=O)c(O)c2C1=O (centres unmarked) [Example 321]	19 nM	19 nM	
C[C@H](N1CN([C@H]2c3cc(F)ccc3CSc3ccc(F)cc32)n2ccc(=O)c(O)c2C1=O)C(F)(F)F [Example 418]	121 nM	72 nM	
C[C@H](N1CN([C@H]2c3ccccc3CSc3cc(F)ccc32)n2ccc(=O)c(O)c2C1=O)C(F)(F)F [Example 459]	287 nM	48 nM	
CCN(CC)CCC1N(C(C)C)C(=O)c2c(O)c(=O)ccn2N1C1c2ccccc2CCc2ccccc21 (centres unmarked) [Example 538]	196 nM		
CCN(CC)CC1N(CCO)C(=O)c2c(O)c(=O)ccn2N1C1c2ccccc2CCc2ccccc21 (centres unmarked) [Example 550]			42 nM
CN(C)CC1N(CCO)C(=O)c2c(O)c(=O)ccn2N1C1c2ccccc2CCc2ccccc21 (centres unmarked) [Example 551]	41 nM		
COCCN1C(=O)c2c(O)c(=O)c(C(=O)O)cn2N(C2c3ccccc3CCc3ccccc32)C1CCSC (centres unmarked) [Example 556]			23 nM
N#Cc1ccccc1N1CC(C2c3ccccc3CCc3ccccc32)n2ccc(=O)c(O)c2C1=O (centres unmarked) [Example 568]	264 nM		

Like-named read-outs stand apart in the source and are kept apart here.
